# Yeast mating assay 2: variants of the scFv Ab-95

All variants were tested on one target, the spike HR2 peptide PDVDLGDISGINAS (SARS-CoV-2).

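The parent was found by panning a naive human phage display library on the peptide. Variants in AAYL52 differ from the parent at up to three CDR positions; double and triple changes were sampled at random. AlphaSeq pools MATa yeast showing the antibodies with MATalpha yeast showing the peptide. Binding brings cells together so that they mate, and sequencing counts the barcode pairs among the diploids. The ratio of observed to expected reads was calibrated, replicate by replicate, on BCL2-family standards whose Kd was known from biolayer interferometry. Each pool was mated in three replicate cultures.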

The variants keep the heavy chain, the linker and the frameworks of Ab-95 (scFv order VH, the linker GGGGSGGGGSGGGGS, VL).
VH: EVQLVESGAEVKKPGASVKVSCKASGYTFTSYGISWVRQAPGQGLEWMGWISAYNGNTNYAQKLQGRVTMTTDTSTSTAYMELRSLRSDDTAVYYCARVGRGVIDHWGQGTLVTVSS
VL: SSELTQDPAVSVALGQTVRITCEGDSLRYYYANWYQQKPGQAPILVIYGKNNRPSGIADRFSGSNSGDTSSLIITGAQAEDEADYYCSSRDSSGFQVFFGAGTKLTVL

Positions count from residue 1 of the parent VL; Y29R puts R in place of Y.
All variants listed here change Y29 of the VL, counted from its first residue.
Values are apparent Kd, the geometric mean of the replicates that gave a signal; lower means stronger binding.
Where no diploid with the target was found in any replicate, the entry reads "nd": below detection, most likely a poor binder, though not proof of it.
Nonspecific signal, from three strains lacking the peptide, appeared in 28% of pairings of library AAYL52, centred on 8.2 µM (5% of these signals below 800 nM); values are not corrected for it.

Variant Y29R/S55K/S88R gave 1.5 µM (3 of 3 replicates).
Variant Y29N/R53S/R90N gave 1.6 µM (3 of 3 replicates).
Variant L27F/Y29F/K50I gave 150 µM (1 of 3 replicates).
Variant S26G/Y29H/N51T gave 1.2 µM (3 of 3 replicates).
Variant Y29E/Y30F gave 14 µM (3 of 3 replicates).
Variant R28I/Y29V gave nd (0 of 3 replicates).
Variant Y29D/K50R/Q96T gave 1.1 µM (3 of 3 replicates).
Variant Y29P/S55Q/S89G gave 750 nM (3 of 3 replicates).
Variant Y29V/P54Q/D91C gave nd (0 of 3 replicates).
Variant Y29F/N33P/G49W gave 30 µM (2 of 3 replicates).
Variant Y29A/Y31D/V97M gave 3.1 nM (3 of 3 replicates).
Variant Y29D/S55Q/V97W gave 570 nM (3 of 3 replicates).
Variant Y29L/N33V/F95Q gave nd (0 of 3 replicates).
Variant R28H/Y29F/R90Q gave 3.2 µM (2 of 3 replicates).
Variant Y29T/R53M/S93Q gave 35 µM (1 of 3 replicates).
Variant Y29P/S89P/D91E gave 2.9 µM (2 of 3 replicates).
Variant Y29S/N51S/P54G gave 86 nM (3 of 3 replicates).
Variant G24Y/Y29D/N33V gave nd (0 of 3 replicates).
Variant Y29W/Y31W/N33T gave 3.2 µM (3 of 3 replicates).
Variant L27R/Y29R/Y31S gave 1.8 µM (3 of 3 replicates).
Variant Y29R gave 1.2 µM (3 of 3 replicates).
Variant S26H/Y29W/G94M gave 1.2 µM (3 of 3 replicates).
Variant Y29Q gave 82 nM (3 of 3 replicates).
Variant L27G/Y29S/Q96K gave 440 nM (3 of 3 replicates).
Variant Y29C/R90L/G94R gave nd (0 of 3 replicates).
Variant Y29C/A32V/Q96Y gave 12 µM (3 of 3 replicates).
Variant Y29D/S88F/F98R gave 110 nM (3 of 3 replicates).
Variant Y29W/R90D gave 1.4 µM (3 of 3 replicates).
Variant L27T/Y29P/F98W gave 210 nM (3 of 3 replicates).
Variant Y29C/N33A/P54F gave 2.0 µM (2 of 3 replicates).
Variant Y29T/A32R/S92I gave 2.4 µM (1 of 3 replicates).
Variant S26C/L27F/Y29K gave 2.1 µM (3 of 3 replicates).
Variant Y29D/S55N/G94S gave 21 nM (3 of 3 replicates).
Variant R28W/Y29M/S88N gave 2.4 µM (3 of 3 replicates).
Variant Y29V/G49V/S55A gave 23 µM (2 of 3 replicates).
Variant S26Y/R28K/Y29H gave 700 nM (2 of 3 replicates).
Variant Y29V/Y31A/Q96W gave 1.6 µM (3 of 3 replicates).
Variant Y29N/N33E/R90S gave 32 µM (2 of 3 replicates).
Variant Y29V/R90V gave nd (0 of 3 replicates).
Variant Y29L/A32G/S92M gave 700 nM (3 of 3 replicates).
Variant Y29I/N52G/R53I gave 120 µM (2 of 3 replicates).
Variant R28Y/Y29N/G94W gave nd (0 of 3 replicates).
Variant Y29Q/F95D/Q96S gave 1.2 µM (3 of 3 replicates).
Variant E23I/Y29R/A32L gave nd (0 of 3 replicates).
Variant S26D/L27V/Y29K gave 6.6 µM (3 of 3 replicates).
Variant Y29T/S93Y/F95G gave 1.9 µM (1 of 3 replicates).
Variant Y29P/R90L/S92K gave 5.8 µM (1 of 3 replicates).
Variant Y29T/N33R/V97F gave 30 µM (1 of 3 replicates).
Variant Y29F/S88R/Q96W gave 690 nM (3 of 3 replicates).
Variant G24A/Y29L/N52I gave 12 µM (3 of 3 replicates).

Repeated from above, the 3 best binders with a signal in all replicates:

Variant Y29A/Y31D/V97M showed 3.1 nM (3 of 3 replicates).
Variant Y29D/S55N/G94S showed 21 nM (3 of 3 replicates).
Variant Y29Q showed 82 nM (3 of 3 replicates).

For reference, the parent read 200 nM as the reference entry and 180 nM as a member of this library.

Data: MIT Lincoln Laboratory AlphaSeq set, Engelhart et al. 2022, doi:10.1038/s41597-022-01779-4, as distributed in FLAb.